Assay results: patent publication US10285962B2, “Glutarate compounds for treating ischemia-reperfusion injuries” (The Regents of the University of California, priority 2016, dated 2019)

Protein sequences, listed by entry. Tags and fused reporters are not part of them. Lines headed by an entry give the natural chain unless they say otherwise; changes in a name come on top.
UniProt P56480: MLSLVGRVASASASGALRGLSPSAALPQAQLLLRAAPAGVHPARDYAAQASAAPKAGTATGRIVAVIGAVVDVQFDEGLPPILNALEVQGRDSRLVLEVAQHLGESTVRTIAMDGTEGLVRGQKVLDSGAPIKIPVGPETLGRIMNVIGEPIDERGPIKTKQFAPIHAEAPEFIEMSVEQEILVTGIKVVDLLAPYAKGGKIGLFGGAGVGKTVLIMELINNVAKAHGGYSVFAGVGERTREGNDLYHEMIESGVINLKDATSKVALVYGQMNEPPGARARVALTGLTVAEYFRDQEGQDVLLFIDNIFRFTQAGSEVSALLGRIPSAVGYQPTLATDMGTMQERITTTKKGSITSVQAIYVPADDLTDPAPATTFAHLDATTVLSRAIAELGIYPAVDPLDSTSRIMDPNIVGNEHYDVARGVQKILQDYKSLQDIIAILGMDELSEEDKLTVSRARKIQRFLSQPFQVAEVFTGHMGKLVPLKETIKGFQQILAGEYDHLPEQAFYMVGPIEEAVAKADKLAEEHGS
UniProt Q9CR84: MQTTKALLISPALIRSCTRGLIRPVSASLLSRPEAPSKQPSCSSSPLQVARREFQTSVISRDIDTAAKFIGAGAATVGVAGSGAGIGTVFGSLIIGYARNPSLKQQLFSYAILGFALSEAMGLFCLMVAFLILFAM
UniProt Q9DB20: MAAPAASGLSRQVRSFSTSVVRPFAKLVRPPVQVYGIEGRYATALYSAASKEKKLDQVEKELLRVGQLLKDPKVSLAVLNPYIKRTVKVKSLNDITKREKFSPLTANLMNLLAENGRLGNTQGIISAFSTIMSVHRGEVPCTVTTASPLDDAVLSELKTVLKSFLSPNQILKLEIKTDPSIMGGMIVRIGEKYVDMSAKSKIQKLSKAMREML

Target: cyclophilin D binding to Complex V (Mus musculus, UniProt P56480+Q9CR84+Q9DB20)
Details: mouse heart mitochondria, immunoblot

CN1C(=O)C(Cc2ccc3ccccc3c2)N=C(c2ccc(O)cc2)c2cc(Cl)ccc21 (centres unmarked) [Bz-423]
CypD binding to Complex V: reduces

CC[C@H]1/C=C/C=C/C[C@@H](C)[C@H](O)[C@@](C)(O)C(=O)[C@@H](C)[C@H](O)[C@@H](C)C(=O)[C@@H](C)[C@H](O)[C@@H](C)/C=C/C(=O)O[C@@H]2[C@H](C)[C@H](CC1)O[C@]1(CC[C@H](C)[C@H](C[C@@H](C)O)O1)[C@H]2C [oligomycin]
CypD binding to Complex V: increases
